Earlier results in US10172953B2, “XTEN conjugate compositions and methods of making same” (Amunix Operating Inc., priority 2012, dated 2019).

Conditions: unmodified peptide/protein (Fxa: plasma half-life); cited from earlier work

In the case of CC[C@H](C)[C@H](NC(=O)[C@@H]1CCCN1C(=O)CNC(=O)[C@H](Cc1ccccc1)NC(=O)[C@H](CC(N)=O)NC(=O)[C@H](CC(N)=O)NC(=O)[C@H](CO)NC(=O)[C@H](CO)NC(=O)[C@H](Cc1c[nH]cn1)NC(=O)[C@@H](NC(=O)[C@H](CC(C)C)NC(=O)[C@H](Cc1ccccc1)NC(=O)[C@H](CC(N)=O)NC(=O)[C@H](C)NC(=O)[C@H](CC(C)C)NC(=O)[C@H](CCCNC(=N)N)NC(=O)[C@H](CCC(N)=O)NC(=O)[C@@H](NC(=O)[C@H](C)NC(=O)[C@@H]1CSSC[C@H](NC(=O)[C@@H](N)CCCCN)C(=O)N[C@@H](CC(N)=O)C(=O)N[C@@H]([C@@H](C)O)C(=O)N[C@@H](C)C(=O)N[C@@H]([C@@H](C)O)C(=O)N1)[C@@H](C)O)C(C)C)C(=O)N[C@@H](CC(C)C)C(=O)N1CCC[C@H]1C(=O)N1CCC[C@H]1C(=O)N[C@H](C(=O)N[C@@H](CC(N)=O)C(=O)N[C@H](C(=O)NCC(=O)N[C@@H](CO)C(=O)N[C@@H](CC(N)=O)C(=O)N[C@H](C(=O)N[C@@H](Cc1ccc(O)cc1)C(N)=O)[C@@H](C)O)C(C)C)[C@@H](C)O [pramlintide, reference compound], the half-life is given as 20 min.
